pIC50: −log10 of the molar value.
What was measured:
CypA [1] = molecular target: T1, CypA (Homo sapiens, UniProt P62937); experiment: Degradation of CypA in HDFn fibroblasts (western blot); type: cell-based; settings: 8 h and 24 h
IL-2 = IL-2 ELISA of activated PBMC supernatants; settings: activated PBMCs
IFN-γ = IFN-γ ELISA of activated PBMC supernatants; settings: activated PBMCs
PBMCs = experiment: PBMC toxicity assessment by FACS (Annexin V / 7-AAD); settings: daily 1 µM for four days
CypA [2] = molecular target: T1, CypA; experiment: CypA degradation in CD3/CD28-activated PBMCs (western blot); type: cell-based
cellular CypA = experiment: PPIase activity of the cell lysate of treated PBMCs; settings: PBMC lysate, daily administration of 1 µM for four days versus single treatment
CypA [3] = molecular target: T1, CypA; experiment: PPIase activity assay (IC50 determination); type: biochemical; settings: PPIase activity of CypA, 4 nM CypA
[4] = daily treatment with 1 µM for four days

The chains behind the UniProt entries cited, without tags or fusion partners.
UniProt P62937, whole entry: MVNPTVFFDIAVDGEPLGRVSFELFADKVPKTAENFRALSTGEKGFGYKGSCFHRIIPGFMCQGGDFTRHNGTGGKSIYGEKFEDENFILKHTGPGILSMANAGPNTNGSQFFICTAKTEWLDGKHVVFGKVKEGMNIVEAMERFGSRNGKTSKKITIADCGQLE

Compound	CypA degradation in fibroblasts (CypA [1])	production of IL-2 (IL-2; [4])	production of IL-2 (IL-2; single treatment with 1 µM)	production of IFN-γ (IFN-γ; [4])	production of IFN-γ (IFN-γ; single treatment with 1 µM)	percentage of apoptotic and necrotic cells compared to the DMSO control (PBMCs)	CypA degradation in activated PBMCs (CypA [2]; daily administration of 1 µM for four days versus single treatment)	CypA degradation in activated PBMCs (CypA [2]; five healthy donors, single treatment)	cytosolic PPIase activity (cellular CypA)	pIC50 (CypA [3])
CC[C@@H]1NC(=O)[C@H]([C@H](O)[C@H](C)CCCCCC(=O)NCCOCCOCCOCCOCCC(=O)N[C@H](C(=O)N2C[C@H](O)C[C@H]2C(=O)NCc2ccc(-c3scnc3C)cc2)C(C)(C)C)N(C)C(=O)[C@H](C(C)C)N(C)C(=O)[C@H](CC(C)C)N(C)C(=O)[C@H](CC(C)C)N(C)C(=O)[C@@H](C)NC(=O)[C@H](C)NC(=O)[C@H](CC(C)C)N(C)C(=O)[C@H](C(C)C)NC(=O)[C@H](CC(C)C)N(C)C(=O)CN(C)C1=O	best PROTACs in fibroblasts	neither a single treatment with 1 µM P3 nor the daily treatment with 1 µM P3 for four days affected the production of IFN-γ and IL-2	neither a single treatment with 1 µM P3 nor the daily treatment with 1 µM P3 for four days affected the production of IFN-γ and IL-2	neither a single treatment with 1 µM P3 nor the daily treatment with 1 µM P3 for four days affected the production of IFN-γ and IL-2	neither a single treatment with 1 µM P3 nor the daily treatment with 1 µM P3 for four days affected the production of IFN-γ and IL-2	almost no difference	did not cause further degradation of the protein	induced the degradation of CypA	further reduction in cytosolic PPIase activity	
CC[C@@H]1NC(=O)[C@H]([C@H](O)[C@H](C)CCCCCC(=O)NCCOCCOCCOCCOCCC(=O)Nc2cccc3c2C(=O)N(C2CCC(=O)NC2=O)C3=O)N(C)C(=O)[C@H](C(C)C)N(C)C(=O)[C@H](CC(C)C)N(C)C(=O)[C@H](CC(C)C)N(C)C(=O)[C@@H](C)NC(=O)[C@H](C)NC(=O)[C@H](CC(C)C)N(C)C(=O)[C@H](C(C)C)NC(=O)[C@H](CC(C)C)N(C)C(=O)CN(C)C1=O (stereo partly shown)										8.11
